Source: patent US10323013B2, “Inhibitors of the IRE-1/XBP-1 pathway and methods of using thereof” (H. LEE MOFFITT CANCER CENTER AND RESEARCH INSTITUTE, INC., priority 2013, dated 2019)

How the values were obtained:
Format in all cases: cell-based, human
XBP-1 mRNA splicing = XBP-1 mRNA splicing by RT-PCR; conditions: 20 μM; for XBP-1 splicing (in words): 48 h
[1] = test system: XBP-1s expression in Jeko cells; assay: Inhibition of XBP-1s expression in Jeko cells (immunoblots and densitometry); conditions: 20 μM, 24 h
[2] = test system: XBP-1s expression in Mino cells; assay: Inhibition of XBP-1s expression in Mino cells (immunoblots and densitometry); conditions: 20 μM, 24 h

| SMILES | XBP-1 splicing (in words) (XBP-1 mRNA splicing; HBL2, Jeko, Mino and Z138 MCL cell lines) | expression of XBP-1s (in words) (XBP-1 mRNA splicing; MEC1, MEC2 and WaC3 cell lines) | XBP-1 splicing (in words) (XBP-1 mRNA splicing; mouse 5TGM1 and human RPMI-8226 MM cells) | suppression of XBP-1s expression (in words) [1] | suppression of XBP-1s expression (in words) ([1]; listed as C-C05) | suppression of XBP-1s expression (in words) [2] | suppression of XBP-1s expression (in words) ([2]; listed as C-C05) |
| --- | --- | --- | --- | --- | --- | --- | --- |
| O=c1oc2c(C3OCCCO3)c(O)ccc2c2c1CNCC2 [Compound 28, 7-(1,3-dioxan-2-yl)-8-hydroxy-3,4-dihydro-1H-chromeno[3,4-c]pyridin-5(2H)-one] | inhibited | suppressed | inhibited |  |  |  |  |
| CC(=O)N1CCc2c(c(=O)oc3c(C=O)c(O)ccc23)C1 [Compound 29, 3-acetyl-8-hydroxy-5-oxo-2,3,4,5-tetrahydro-1H-chromeno[3,4-c]pyridine-7-carbaldehyde] |  |  |  | potently suppress | strong suppression | potently suppress | strong suppression |
| CN1CCc2c(c(=O)oc3c(C=O)c(O)ccc23)C1 [Compound 30, 8-hydroxy-3-methyl-5-oxo-2,3,4,5-tetrahydro-1H-chromeno[3,4-c]pyridine-7-carbaldehyde] |  |  |  | potently suppress |  | potently suppress |  |
